Assay results published in PMC3115942, “A Novel Synthetic Smoothened Antagonist Transiently Inhibits Pancreatic Adenocarcinoma Xenografts in a Mouse Model” (PLoS ONE, 2011).

Tested on: PANC-1, SUIT-2, PC-3 and FEMX cells
Test: In vitro antiproliferative assay (MTS), tumor cell lines
Format: cell-based, human
Conditions: 10 µM, 4 day exposure; across PANC-1, SUIT-2, PC-3 and FEMX
Procedure: Cells were plated at a density of 3000 (THLE-2 and PC-3) and 1000 (PANC-1, SUIT-2 and FEMX) cells per well (on the basis of their growth rate) in 200 µl of medium in a 96-well plate. Medium was changed daily, and after four days, the assay was read using a MTS kit (Promega) according to the instructions of the manufacturer. Graphs display average of percent growth with standard deviation (n = 8).

CC1=C2C[C@H]3[C@@H](CC=C4C[C@@H](O)CC[C@@]43C)[C@@H]2CC[C@]12O[C@@H]1C[C@H](C)CN[C@H]1[C@H]2C [cyclopamine]
growth reduction (MTS): ≤ 30%
